This data set in a line: Aqueous solubility of prepared oxalic acid addition salt of olanzapine. It is filed as physicochemical.

Consider 1 substance from patent US20080161557A1, “Synthesis of 2-Methyl-4-(4-Methyl-1-Piperazinly)-10H-Thieno(2,3-B) (1,5) Benzodiazepine and Salts Thereof” (LEK PHARMACEUTICALS D.D., priority 2004, published 2008).

With “olanzapine oxalate [oxalic acid addition salt of olanzapine]”, the Aqueous solubility entry was “up to 800 mg/ml”.
